Source: PMC7051184, “C9orf72 arginine-rich dipeptide repeat proteins disrupt karyopherin-mediated nuclear import” (eLife, 2020)

How the values were obtained:
importin β [1] = experiment: Biochemical pulldown (GFP-Trap) for DPR-induced Rango-importin β dissociation; assay type: binding, human; settings: increasing concentrations of DPRs
Procedure: GFP-Trap magnetic beads (Chromotek, Planegg-Martinsried, Germany) were washed and resuspended in TTBS. At the end of incubation, 8 µl bead suspension was added to each sample and mixed by rotation for 15 min. The supernatant was removed and beads washed 3 times with TTBS before boiling in 20 µl SDS-PAGE sample buffer with 2% β-mercaptoethanol. Samples were separated by SDS-PAGE and anti-GFP western blot performed as detailed below to detect Rango. After detecting the ECL signal, membranes were stained with Coomassie Brilliant R250 to detect importin β. Background-subtracted signals were determined by Image Lab 6.01 (BioRad) and the Rango ECL signal normalized to the importin β signal within each lane.
Supernatant and pellet fractions (for all 5 DPRs, and control/buffer only) were prepared as in the nuclear transport assays, by adding 100 µM 10mers to 2.5 mg/ml HEK lysate in 100 µL TRB. Supernatants were boiled in Laemmli (BioRad) for 5 min. Pellets were boiled for 15 min followed by sonication in order to fully disperse aggregates for SDS-PAGE. […] Protein loading was analyzed by BLOT-Faststain (G-biosciences, St. Louis, MO), according to the manufacterers’ instructions. […] Band intensities were measured by ImageQuant software. For pellet vs. supernatant fractions, all were expressed as percent untreated control. […]

[2] = Bead halo assay, bare neutravidin beads (non-specific control); settings: AF488-labeled, 200 nM, binding buffer
Procedure: (§1) The bead halo assay was carried out as described with minor modifications ([Patel and Rexach, 2008]), using […] polystyrene beads coated with neutravidin (for biotinylated proteins) or glutathione (for GST-fusion proteins) (Spherotech, Lake Forest, IL). Beads were coated overnight at 4°C at saturating concentrations per manufacturers’ instructions and rinsed 2x in binding buffer (20 mM HEPES [pH 7.4], 150 mM KOAc, 2 mM Mg(OAc)2, 1 mM DTT, 0.1% Tween-20). Immediately prior to the assay, fluorescent bait proteins and beads were combined with 4x assay buffer (40 mM EDTA, 40 mg/ml BSA, 500 mM NaCl, and 0.2% Tween) to a total of 40 µL per well, in optical glass-bottom 96-well plates (Cellvis, Mountain View, CA). Reactions were allowed to equilibrate at room temperature for a minimum of 30 min prior to imaging at 100x on an LSM800 confocal microscope (Zeiss, Oberkochen, Germany). Intensity profiles comparing the maximum rim intensity to the background were plotted in ImageJ (NIH) by an investigator blinded to experimental conditions.

Nup100(1-307) = tested on: Nup100(1-307); parameters: species or system S. cerevisiae; settings: AF488-labeled, binding buffer
Procedure: (§2) The expression of GST- Nsp1(497-609) in BL21(DE3) cells grown in LB media was induced at OD600nm = 0.4–0.6, followed by incubation at 37°C for 3–5 hr. The GST-tagged S. cerevisiae pGEX-Nup100(1-307), Nup100(1-610), Nup116(348-458) and Nup116(348-458)F > A were expressed in T7 Shuffle cells (NEB) that were grown in Dynamite media ([Taylor et al., 2017]) until OD600nm = 0.9 before induction with IPTG at 37°C for 3 hr. All the GST-tagged Nup fragments were purified using glutathione-sepharose affinity chromatography, as described for the GST-GFP-NLS above, and dialyzed into PBS before storage.
as §1, with “Reactions were allowed to equilibrate at room temperature for a minimum of 30 min prior to imaging at 100x on an LSM800 confocal microscope (Zeiss, Oberkochen, Germany). Intensity profiles comparing the maximum rim intensity to the background were plotted in ImageJ (NIH) by an investigator blinded to experimental conditions.” left out

Nup100(1-610) = tested on: Nup100(1-610); parameters: species or system S. cerevisiae; settings: AF488-labeled, binding buffer
Procedure: as §2
as §1, with “Reactions were allowed to equilibrate at room temperature for a minimum of 30 min prior to imaging at 100x on an LSM800 confocal microscope (Zeiss, Oberkochen, Germany). Intensity profiles comparing the maximum rim intensity to the background were plotted in ImageJ (NIH) by an investigator blinded to experimental conditions.” left out

importin β [3] = experiment: DPR aggregation assay and western blot, ImpB; assay type: biochemical, human; settings: for ImpB band density, Pellet / ImpB band density, Supernatant: 100 µM 10mer in 2.5 mg/ml HEK lysate, normalized to untreated HEK; for ImpB band density, % untr control: Fig 5-suppl 3C, normalized to untreated HEK on same membrane;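 for ImpB band density, % untr control: RNA rows contain added 20 µg total HEK RNA while no-RNA rows lack it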
Procedure: (§3) Supernatant and pellet fractions (for all 5 DPRs, and control/buffer only) were prepared as in the nuclear transport assays, by adding 100 µM 10mers to 2.5 mg/ml HEK lysate in 100 µL TRB. Supernatants were boiled in Laemmli (BioRad) for 5 min. Pellets were boiled for 15 min followed by sonication in order to fully disperse aggregates for SDS-PAGE. Equal volumes of supernatant and pellet fractions were run on 4–12% Bolt Bis-Tris Plus gels (ThermoFisher), transferred to nitrocellulose membrane using an iBlot2 dry blotting system (ThermoFisher). Protein loading was analyzed by BLOT-Faststain (G-biosciences, St. Louis, MO), according to the manufacterers’ instructions. For immunodetection, membranes were blocked with 5% non-fat milk in TBST and probed by sequential incubation with the primary antibodies as detailed in the table below. Detection was by HRP-conjugated secondary antibodies/chemiluminescence using an ImageQuant LAS 4000 system (GE, Chicago, IL). To permit sequential probing of membranes without stripping, signals were quenched by incubation with prewarmed 30% H20_2 for 20 min ([Sennepin et al., 2009]). Band intensities were measured by ImageQuant software. For pellet vs. supernatant fractions, all were expressed as percent untreated control. For blots in Figure 1E, samples were run on 4–20% SDS PAGE minigels (ThermoFisher) and blotted to PVDF membranes (Immun-Blot PVDF, Bio-Rad) using the Bio-Rad TransBlot Turbo apparatus, and probed as above. The chemiluminescence signal was captured with a Bio-Rad ChemiDoc XRS+ digital imaging system.

importin α = experiment: DPR aggregation assay and western blot, ImpA; assay type: biochemical, human; settings: 100 µM 10mer in 2.5 mg/ml HEK lysate, normalized to untreated HEK
Procedure: as §3

Ran = experiment: DPR aggregation assay and western blot, Ran; assay type: biochemical, human; settings: for Ran band density, Pellet / Ran band density, Supernatant: 100 µM 10mer in 2.5 mg/ml HEK lysate, normalized to untreated HEK; for Ran band density, % untr control: Fig 5-suppl 3C, normalized to untreated HEK on same membrane;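 for Ran band density, % untr control: RNA rows contain added 20 µg total HEK RNA while no-RNA rows lack it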
Procedure: as §3

Matrin-3 = experiment: DPR aggregation assay and western blot, Matrin-3; assay type: biochemical, human; settings: normalized to untreated HEK cells on the same membrane
Procedure: as §3

[4] = DPR aggregate formation in HEK lysate (pellet vs. supernatant, total protein); assay type: biochemical, human; settings: 100 µM
Procedure: as §3, with “For blots in Figure 1E, samples were run on 4–20% SDS PAGE minigels (ThermoFisher) and blotted to PVDF membranes (Immun-Blot PVDF, Bio-Rad) using the Bio-Rad TransBlot Turbo apparatus, and probed as above. The chemiluminescence signal was captured with a Bio-Rad ChemiDoc XRS+ digital imaging system.” left out

[5] = Pellet, no RNA (Untreated), blot 1
[6] = Pellet, no RNA (Untreated), blot 2
[7] = Supernatant, no RNA (Untreated), blot 1
[8] = Supernatant, no RNA (Untreated), blot 2

N=C(N)NCCC[C@H](NC(=O)CNC(=O)[C@H](CCCNC(=N)N)NC(=O)CNC(=O)[C@H](CCCNC(=N)N)NC(=O)CNC(=O)[C@H](CCCNC(=N)N)NC(=O)CNC(=O)[C@H](CCCNC(=N)N)NC(=O)CNC(=O)[C@H](CCCNC(=N)N)NC(=O)CNC(=O)[C@H](CCCNC(=N)N)NC(=O)CNC(=O)[C@H](CCCNC(=N)N)NC(=O)CNC(=O)[C@H](CCCNC(=N)N)NC(=O)CNC(=O)[C@H](CCCNC(=N)N)NC(=O)CN)C(=O)O [GR10]
Displacement of importin β from Rango (GFP nanobody bead co-immunoprecipitation) (importin β [1]): dose-dependent displacement of importin β from the sensor | Binding to bare beads [2]: modest non-specific binding | Binding to Nup100 GLFG-domain (halo intensity) (Nup100(1-307)): modest selective binding | Binding to Nup100 GLFG-domain (halo intensity) (Nup100(1-610)): modest selective binding | ImpB band density, Pellet (importin β [3]; Blot 1): 1064.8 % control | ImpB band density, Supernatant (importin β [3]; Blot 1): 83.0 % control | ImpB band density, Pellet (importin β [3]; Blot 2): 423.8 % control | ImpB band density, Supernatant (importin β [3]; Blot 2): 93.2 % control | ImpB band density, % untr control (importin β [3]; Pellet, RNA, blot 1): 163.77% | ImpB band density, % untr control (importin β [3]; Pellet, RNA, blot 2): 188.99% | ImpB band density, % untr control (importin β [3]; [5]): 245.89% | ImpB band density, % untr control (importin β [3]; [6]): 364.35% | ImpB band density, % untr control (importin β [3]; Supernatant, RNA, blot 1): 93.15% | ImpB band density, % untr control (importin β [3]; Supernatant, RNA, blot 2): 131.87% | ImpB band density, % untr control (importin β [3]; [7]): 98.63% | ImpB band density, % untr control (importin β [3]; [8]): 118.94% | ImpA band density, Pellet (importin α; Blot 1): 193.3 % control | ImpA band density, Supernatant (importin α; Blot 1): 76.6 % control | ImpA band density, Pellet (importin α; Blot 2): 205.4 % control | ImpA band density, Supernatant (importin α; Blot 2): 87.4 % control | Ran band density, Pellet (Ran; Blot 1): 340.6 % control | Ran band density, Supernatant (Ran; Blot 1): 119.5 % control | Ran band density, Pellet (Ran; Blot 2): 461.6 % control | Ran band density, Supernatant (Ran; Blot 2): 102.8 % control | Ran band density, % untr control (Ran; Pellet, RNA, blot 1): 234.84% | Ran band density, % untr control (Ran; Pellet, RNA, blot 2): 309.78% | Ran band density, % untr control (Ran; [5]): 209.34% | Ran band density, % untr control (Ran; [6]): 257.02% | Ran band density, % untr control (Ran; Supernatant, RNA, blot 1): 113.99% | Ran band density, % untr control (Ran; Supernatant, RNA, blot 2): 115.12% | Ran band density, % untr control (Ran; [7]): 110.37% | Ran band density, % untr control (Ran; [8]): 104.48% | Matrin-3 band density, % control (Matrin-3; Pellet, Blot 1): 270.7 % control | Matrin-3 band density, % control (Matrin-3; Pellet, Blot 2): 218.9 % control | Matrin-3 band density, % control (Matrin-3; Supernatant, Blot 1): 29.8 % control | Matrin-3 band density, % control (Matrin-3; Supernatant, Blot 2): 41.9 % control | Depletion of NCT proteins from the supernatant [4]: not substantially depleted from the supernatant
